From PubChem BioAssay AID686964 (The Scripps Research Institute Molecular Screening Center, 2013) come the findings set out here.

Chains of the proteins cited; added tags and fusions are not shown.
UniProt Q9UBB5, whole entry, looked up: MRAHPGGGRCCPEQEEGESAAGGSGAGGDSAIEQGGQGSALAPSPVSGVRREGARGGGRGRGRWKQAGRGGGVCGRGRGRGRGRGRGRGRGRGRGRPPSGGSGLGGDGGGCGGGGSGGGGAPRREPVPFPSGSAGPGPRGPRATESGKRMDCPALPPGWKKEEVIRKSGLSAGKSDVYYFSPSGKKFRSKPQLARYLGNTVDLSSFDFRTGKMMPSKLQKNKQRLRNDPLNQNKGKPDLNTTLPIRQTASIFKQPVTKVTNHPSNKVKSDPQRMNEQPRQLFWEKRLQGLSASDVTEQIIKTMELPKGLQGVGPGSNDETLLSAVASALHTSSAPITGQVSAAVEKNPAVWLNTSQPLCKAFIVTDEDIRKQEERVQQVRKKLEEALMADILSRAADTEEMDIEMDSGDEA

Each structure is given as a SMILES string. The entries are a selection whose mix differs from that of the whole data set. Calls of active or inactive are those of the source. Rule as the data show it: active = inhibition above about 13%; inactive = the rest.

The test deals with Methyl-CpG-binding domain protein 2 (Homo sapiens) (UniProt Q9UBB5). Kind of test: inhibitors of MBD2 binding to methylated DNA, primary screen, biochemical, TR-FRET, DNA-binding domain, human (AID 686964). The following applies: MBD2 binding to methylated oligonucleotide, at 4.4 µM, hits give high values.
For `[N-]=[N+]=NC1CCCCC1NC(=O)c1cc([N+](=O)[O-])cc([N+](=O)[O-])c1` (stereo not drawn), the inhibition (as a rule, the drop in the measured response relative to a control, in per cent) is inactive: 3.95%.
As for `Cc1ccc2nc3c(c(C)c2c1)CC(C(Cl)Cl)S3` (stereo not drawn), the figure is inactive: -1.17%.
As for `ClCCSc1nnc(-c2cccnc2)o1`, the figure is inactive: 0.77%; as for `CC(C)c1ccc(OP(=O)(Nc2ccccn2)Oc2ccccc2F)cc1` (stereo not drawn), inactive: -0.86%.
On to `COC(=O)C1(C)COP(=O)(N2CCCCCC2)OC1` (stereo not drawn), for which the inhibition is inactive: 0.79%.
In the case of `O=C(OC1CN2CCC1CC2)c1cccc2[nH]cnc12` (stereo not drawn) it was inactive: 6.62%; in that of `CCN(CC)C(=S)SC(NC=O)C(Cl)(Cl)Cl` (stereo not drawn), inactive: 1.28%; in that of `CC(C)NC(=O)NP(=O)(Oc1ccccc1)Oc1ccccc1`, inactive: -4.09%.
In the case of `Cc1c2c(nc3ccccc13)SC(C(Cl)Cl)C2` (stereo not drawn), the inhibition was inactive: 0.49%.
As for `Cc1cc(=O)[nH]c(N[N+](=O)[O-])n1`, the figure is inactive: -4.39%.
Consider `O=C(OC1CN2CCC1CC2)C12CC3CC(CC(C3)C1)C2` (stereo not drawn), for which the inhibition is inactive: 0.9%.
Turning to `O=P1(N(CCCl)CCCl)OCCCN1CCCl` (stereo not drawn), the inhibition was inactive: 1.21%.
As for `O=P1(N(CCCl)CCCl)Nc2ccccc2N1`, the figure is inactive: 1.39%; as for `COc1cc(I)ccc1[As](=O)(O)O`, inactive: -0.69%; as for `COc1ccc2nc(NP(=O)(c3ccccc3)c3ccccc3)sc2c1`, inactive: -1.12%.
As for `O=[N+]([O-])c1cc(Oc2ccc([N+](=O)[O-])cc2C(F)(F)F)cc([N+](=O)[O-])c1`, the figure is inactive: 2.79%.
In the case of `COc1ccc(N/C(=N/P(=O)(N2CCOCC2)N2CCOCC2)N2CCOCC2)cc1` it was inactive: -1.63%; in that of `COC(=O)C1(C)COP(=O)(N2CCCC2)OC1` (stereo not drawn), inactive: -6.44%.
`COP1(=S)c2c(C)nn(CCC#N)c2N=C(c2ccc(F)cc2)N1C` (stereo not drawn): the inhibition is inactive: -2.64%.
As for `O=C(O)C(=O)c1ccc(N(CCCl)CCCl)cc1`, the figure is inactive: -1.04%.
In the case of `O=C(Nc1ccncc1[N+](=O)[O-])c1ccc([N+](=O)[O-])cc1[N+](=O)[O-]` it was inactive: 2.05%.
As for `O=C(COc1ccccc1)OC1CN2CCC1CC2` (stereo not drawn), the figure is inactive: 5.24%.
With `O=C(OC1CN2CCC1CC2)c1cccc([N+](=O)[O-])c1` (stereo not drawn), the inhibition was inactive: 0.74%.
Turning to `CCOC(=O)c1ccc(NC(=O)C(C)(CCl)SC)cc1` (stereo not drawn), the inhibition is inactive: -1.97%.
For the molecule `CCC(C)N(CC(C)C)C(=S)SC(NC(C)=O)C(Cl)(Cl)Cl` (stereo not drawn), the inhibition is inactive: 5.81%.
For `O=C(O)C(O)c1ccc(N(CCCl)CCCl)cc1` (stereo not drawn), the inhibition was inactive: -2.82%.
In the case of `CCOC(=O)Nc1ccc([As](=O)(O)O)c(O)c1` it was inactive: 3.99%.
As for `CC1CCNP(=O)(N(CCCl)CCCl)O1` (stereo not drawn), the figure is inactive: -0.94%.
As for `COP(=O)(OC)N1CC1c1ccccc1` (stereo not drawn), the figure is inactive: -4.65%.
Turning to `Cc1cc(SC(NC(=O)c2ccccc2)C(Cl)(Cl)Cl)nc(C(C)C)n1` (stereo not drawn), the inhibition was inactive: -5.25%.
In the case of `CCCCOc1ccc(C(=O)NCC2(N3CCCCC3)CCCCC2)cc1OC` it was inactive: -0.28%; in that of `CCOC(=O)Nc1cccc([As](=O)(O)O)c1`, inactive: 2.94%; in that of `Cc1cc(SC(NC=O)C(Cl)(Cl)Cl)ncn1` (stereo not drawn), inactive: 1.09%.
With `O=P(Nc1ccccn1)(c1cccc2ccccc12)c1cccc2ccccc12`, the inhibition was inactive: -0.98%.
Turning to `O=[N+]([O-])c1ccc(Nc2ccc(Oc3ccc([N+](=O)[O-])cc3[N+](=O)[O-])cc2)c([N+](=O)[O-])c1`, the inhibition is inactive: 1.69%.
Consider `Cc1ccc(C(=O)OC2CN3CCC2CC3)cc1` (stereo not drawn), for which the inhibition was inactive: 6.23%.
In the case of `CC1CCC(C(C)C)C(OP(=O)(Nc2ccccn2)c2ccccc2)C1` (stereo not drawn) it was inactive: -2.1%.
In the case of `Cc1nn(-c2ccccc2)c2c1P(=O)(N1CCOCC1)N(C)C(c1ccccc1)=N2` (stereo not drawn) it was inactive: -0.61%; in that of `CN(C)C1(CNC(=O)c2ccc(S(C)(=O)=O)cc2)CCCCC1`, inactive: -1.08%; in that of `CCCC1OP(=O)(Nc2ccccc2)OCC1CC` (stereo not drawn), inactive: 3.27%.
As for `O=C(/C=C/c1ccccc1)OC1CN2CCC1CC2` (stereo not drawn), the inhibition is inactive: 2.63%.
For the molecule `Cc1ccc(S(=O)(=O)N(CCCN)CCCc2c(C)nc(N)[nH]c2=O)cc1`, the inhibition is inactive: -8.69%.
In the case of `O=P1(Nc2ncccn2)COc2ccccc2OC1` it was inactive: -2.48%; in that of `Nc1cccc([As](=O)(O)c2ccccc2)c1`, inactive: -4.41%.
As for `NS(=O)(=O)c1cccc(NC(=O)COC(=O)C(O)(c2ccccc2)c2ccccc2)c1`, the figure is inactive: 1.32%; as for `O=P1(Nc2ccc(Br)cn2)COc2ccccc2OC1`, inactive: 4.02%; as for `O=[As](O)(c1cccs1)c1cccs1`, inactive: 1.91%.
As for `Cc1ccc(OCC(=O)OC2CN3CCC2CC3)cc1` (stereo not drawn), the figure is inactive: 7.13%.
`CCOP(=O)(NC(=NC(C)c1ccccc1)NC(C)c1ccccc1)OCC` (stereo not drawn): the inhibition was inactive: -2.53%.
As for `CCC1=CC2Cc3nc4ccc(Cl)cc4c(N)c3C(C1)C2` (stereo not drawn), the figure is inactive: -2.19%; as for `O=P1(Nc2ccccn2)COc2ccccc2OC1`, inactive: 0.31%.
As for `CN(CCCl)Cc1cc(Cl)c(NC2=NCCN2)c(Cl)c1`, the figure is inactive: 3.21%.
In the case of `CCOP(=O)(Nc1ccc(C)cn1)OCC` it was inactive: 1.57%; in that of `CC(C)(C)C(=O)NC(Sc1ncccn1)C(Cl)(Cl)Cl` (stereo not drawn), inactive: 5.06%; in that of `Clc1n[nH]nc1-c1nn[nH][15n]1`, inactive: -0.33%.
Consider `O=P1(N(CCCl)CCCl)NCCC(C(F)(F)F)O1` (stereo not drawn), for which the inhibition was inactive: 2.16%.
For the molecule `COc1ccccc1CNC(=O)COC(=O)C(O)(c1ccccc1)c1ccccc1`, the inhibition was inactive: 1.98%.
As for `CN(C(=O)Cc1ccc(Cl)c(Cl)c1)C1CCCC[C@@H]1N1CCCC1` (stereo partly drawn), the figure is inactive: -0.14%.
In the case of `CN(C(=O)Cc1ccc(Cl)c(Cl)c1)[C@@H]1CCCC[C@H]1N1CCCC1` it was inactive: 1.28%; in that of `CC(C)/C=N\N=C(\N)N[N+](=O)[O-]`, inactive: -1.6%.
In the case of `CC1(CBr)Cn2c(nc3ccccc3c2=O)S1` (stereo not drawn), the inhibition was inactive: 0.97%.
In the case of `O=C(OC1CN2CCC1CC2)c1ccc(Cl)cc1` (stereo not drawn) it was inactive: -2.3%; in that of `CS(=O)(=O)c1ccc(Cl)c(NC(=O)COC(=O)C(O)(c2ccccc2)c2ccccc2)c1`, inactive: -1.6%; in that of `COc1cc(C(=O)NCC2(N3CCOCC3)CCCCC2)cc(Cl)c1OC(C)C`, inactive: 8.41%.
For `O=[As](O)(O)c1cccnc1`, the inhibition was inactive: -2.24%.
Consider `O=[As](O)(c1cccc(O)c1)c1cccc(O)c1`, for which the inhibition was inactive: -4.35%.
In the case of `Cc1cccc(OCC(=O)OC2CN3CCC2CC3)c1` (stereo not drawn) it was inactive: 1.12%.
As for `Nc1cccc2c([As](=O)(O)O)cccc12`, the figure is inactive: -4.23%; as for `Cc1ccc(NCCc2c([N+](=O)[O-])cc([N+](=O)[O-])cc2[N+](=O)[O-])cc1`, inactive: -18.8%.
Consider `CCCOP(=S)(Nc1nc(N)cc(=O)[nH]1)OCCC`, for which the inhibition is inactive: 0.36%.
As for `CCOP(=O)(Nc1cccc2ccccc12)OCC`, the figure is inactive: 0%; as for `COc1cc(C2NCCC3(OCCO3)C2(C)C)cc(OC)c1OC` (stereo not drawn), inactive: 0.05%.
As for `O=P(Nc1nccs1)(Oc1ccccc1)Oc1ccccc1`, the figure is inactive: 3.97%; as for `CCOP1(=S)c2c(C)nn(CCC#N)c2N=C(c2ccccc2F)N1C` (stereo not drawn), inactive: -7.82%.
In the case of `O=C(O)COc1ccc([As](=O)(O)O)cc1[N+](=O)[O-]` it was inactive: -0.62%; in that of `Nc1ccccc1[As](=O)(O)c1ccccc1`, inactive: 0.75%.
For `NC(=O)Nc1ccc([As](=O)(O)O)cc1`, the inhibition was inactive: -7%.
Consider `CN(C(=O)Cc1ccccc1)[C@@H]1CC[C@]2(CCCO2)C[C@H]1N1CCCC1`, for which the inhibition is inactive: 3.88%.
In the case of `CCOP1(=S)c2c(C)nn(CCC#N)c2N=C(c2ccc(F)cc2)N1C` (stereo not drawn) it was inactive: -3.94%.
As for `N#CCCN(C(=O)COC(=O)C(O)(c1ccccc1)c1ccccc1)c1ccc(F)cc1`, the figure is inactive: 2.07%.
As for `CN(C(=O)Cc1ccc(Cl)c(Cl)c1)[C@H]1CC[C@@]2(CCCO2)C[C@@H]1N1CCCC1`, the figure is inactive: 1.09%.
Regarding `CN(C)C(=O)c1cc([N+](=O)[O-])cc2c1-c1c(cc([N+](=O)[O-])cc1[N+](=O)[O-])C2=O`, the inhibition was inactive: -20.2%.
As for `O=[N+]([O-])c1ccc2c(c1)nnn2O`, the figure is inactive: 3.92%.
